Rescue of ATP level data for 19 molecules are collected here from PubChem BioAssay AID602340 (Broad Institute, 2012).

This is a selection; strong and weak results do not stand in their true shares. Some tests of the compounds listed are not included; inactive here does not mean inactive elsewhere. Calls of active or inactive are those of the source.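 How the source made its calls: active means mean ATP rescue above about 67%, or every replicate alone reaching that limit (limit read from the data, passing the limit was not always enough); inconclusive means no clear call, values can overlap the other calls; inactive means mean under the limit and some replicate under it.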

This test is described as follows: suppressors of statin myotoxicity in C2C12 myotubes, primary screen, cell-based, single point, plate reader (AID 602340).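 Further: myotubes were challenged with 10 µM simvastatin during compound exposure.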 The following applies: C2C12 myotubes + simvastatin, ATP luminescence, 48 h; at 7.49 µM; active compounds read high; scaled: DMSO 0, geranylgeraniol control 100.
For the molecule `CN(C)c1ccc(C(=O)NCC2(N(C)C)CCCCC2)cc1`, the rescue of ATP level was inactive: 4.7%. `COc1ccc(C(=O)NCC2(N(C)C)CCCCC2)cc1`: the rescue of ATP level is inactive: -11.1%. Under `Cc1cc(C(=O)NCC2(N3CCCCC3)CCCCC2)ccc1[N+](=O)[O-]` stands inactive: -3.47%; under `O=C(NCC1(N2CCCCC2)CCCCC1)c1cccc(Br)c1`, inactive: -7.09%; under `O=C(NCC1(N2CCCCC2)CCCCC1)c1cc(F)c(F)cc1Cl`, inactive: -2.94%. Regarding `CN1[C@@H]2CC[C@H]1CC(OC(=O)C(O)(c1ccccc1)c1ccccc1)C2` (some centres undefined), the rescue of ATP level was inactive: 3.48%. As for `Cc1ccc(C(=O)NCC2(N3CCCCC3)CCCCC2)cc1`, the rescue of ATP level was inactive: 29.7%.

For the molecule `COc1cc(SC)ccc1C(=O)NCC1(N(C)C)CCCCC1`, the rescue of ATP level was inactive: 2.49%. In the case of `CC(C)N1C(=O)CC2(CCN(CCOC(=O)C(O)(c3ccccc3)c3ccccc3)CC2)C1=O`, the rescue of ATP level was inactive: -18.5%. To `O=C(OC1CN2CCC1CC2)C(CO)(c1ccccc1)c1ccccc1` (centres undefined) belongs inactive: 6.93%.

As for `CC(C)Oc1ccc(C(=O)NCC2(N(C)C)CCCCC2)cc1`, the rescue of ATP level was inactive: -0.787%. Under `O=C(OCCN1CCCC1)C(O)(c1ccccc1)c1ccccc1` stands inactive: 3.66%; under `CN(C)c1cccc(C(=O)NCC2(N(C)C)CCCCC2)c1`, inactive: -2.17%. As to `C=C(C)C#CC(O)(C(=O)OC1CCN(C)CC1)c1ccccc1` (centres undefined), the rescue of ATP level was inactive: 5.84%.

For the molecule `COc1ccc(Br)c(C(=O)NCC2(N3CCCCC3)CCCCC2)c1`, the rescue of ATP level is inactive: 11.8%. Consider `COc1cc(C(=O)NCC2(N(C)C)CCCCC2)c([N+](=O)[O-])cc1OC`, for which the rescue of ATP level was inactive: -17.1%. Under `CN(C)C1(CNC(=O)c2ccc(Br)cc2)CCCCC1` stands inactive: -9.16%; under `O=C(NCC1(N2CCCCC2)CCCCC1)c1cccc(Cl)c1`, inactive: -0.906%; under `COc1ccc(Cl)cc1C(=O)NCC1(N(C)C)CCCCC1`, inactive: -10.5%.
